Among the data in EP4831212A1, “FIBROBLAST ACTIVATION PROTEIN-ALPHA-RESPONSIVE HYDROLYSIS-INDUCED CHARGE-REVERSAL POLYMER-DRUG CONJUGATE, PREPARATION METHOD THEREFOR AND USE THEREOF” (dated 2026) are tumor inhibitory effect values, retold here.

The experiment relates to 4T1 breast cancer tumor-bearing mice. Kind of experiment: Tumor inhibition assay. The following applies: tail vein injection, days 1, 4, 7, 10 and 13, versus PBS blank group. The method, then: (§1) The tumor inhibitory effect of MMAE-conjugated polymers in 4T1 breast cancer tumor-bearing mice was investigated. The assay was initiated when the tumor volume reached approximately 100 mm^3. MMAE (free drug) and two drug-conjugated polymer injections were prepared. A PBS buffer was used as a blank group. The drugs were administered via tail vein injection at an MMAE-equivalent dose of 0.2 mg/kg, with an injection volume of 100 µL per mouse each time. The mice were administered on days 1, 4, 7, 10 and 13 for a total of five times. On days 1, 3, 5, 7, 9, 11, 13 and 15, the body weights of the mice were weighed, and the tumor volumes of the mice were measured.
as §1, with “CPT-conjugated” for “MMAE-conjugated”, “The CPT free drug” for “MMAE (free drug)”, “a CPT-equivalent” for “an MMAE-equivalent”, “5” for “0.2”
as §1, with “of CPT-conjugated” for “of MMAE-conjugated”, “approximately 70” for “approximately 100”, “mm^3. The CPT free drug” for “mm^3. MMAE (free drug)”, “at a CPT-equivalent” for “at an MMAE-equivalent”, “of 5” for “of 0.2”

`CC[C@@]1(O)C(=O)OCc2c1cc1n(c2=O)Cc2cc3ccccc3nc2-1`: the tumor inhibitory effect entry runs as follows: (CPT-equivalent dose of 5 mg/kg, start at tumor volume approximately 70 mm^3, FIG. 10) “inhibit the growth of the tumor to a certain degree”; (CPT-equivalent dose of 5 mg/kg, start at tumor volume approximately 100 mm^3, FIG. 7) “inhibits the growth of the tumor to a certain extent”.
As for `CC[C@H](C)[C@@H]([C@@H](CC(=O)N1CCC[C@H]1[C@H](OC)[C@@H](C)C(=O)N[C@H](C)[C@@H](O)c1ccccc1)OC)N(C)C(=O)[C@@H](NC(=O)[C@@H](NC)C(C)C)C(C)C`, under “MMAE-equivalent dose of 0.2 mg/kg, start at tumor volume approximately 100 mm^3, FIG. 3”, the tumor inhibitory effect entry is listed as “inhibit the growth of the tumor to a certain degree”.
